Some test systems named below: E. coli K-12; S. aureus ATCC 12600; P. aeruginosa 27853.
Holding throughout (settings): broth dilution, Mueller Hinton II Broth, approx. 5×10^5 CFU/ml, 37°C 24 h, OD600, peptide 128 to 0.5 μM

On to `CC[C@H](C)[C@H](NC(=O)[C@H](CC(C)C)NC(=O)[C@@H]1CCCN1C(=O)[C@H](CCCCN)NC(=O)[C@H](C)NC(=O)[C@@H](NC(=O)[C@@H](NC(=O)[C@@H](NC(=O)[C@@H](NC(=O)[C@H](CCCCN)NC(=O)[C@H](CCCCN)NC(=O)[C@H](C)NC(=O)[C@H](C)NC(=O)[C@H](CO)NC(=O)[C@@H](NC(=O)[C@H](CC(C)C)NC(=O)[C@H](CCCCN)NC(=O)[C@H](CCCCN)NC(=O)[C@@H](NC(=O)[C@H](Cc1ccccc1)NC(=O)[C@H](CO)NC(=O)[C@H](CCCCN)NC(=O)[C@H](Cc1c[nH]c2ccccc12)NC(=O)[C@@H](N)CCCCN)[C@@H](C)CC)[C@@H](C)O)C(C)C)C(C)C)[C@@H](C)O)[C@@H](C)O)C(=O)N[C@@H](CO)C(=O)N[C@@H](CO)C(=O)O` [p26], for which the “Escherichia coli experimental MIC” value with E. coli K-12 turned out to be 4 µM. Besides, in the assay with S. aureus ATCC 12600, the “Staphylococcus aureus experimental MIC” value is greater than 128 µM. The “Pseudomonas aeruginosa experimental MIC” value with P. aeruginosa 27853 is 4 µM.

Turning to `CC[C@H](C)[C@H](NC(=O)[C@H](CC(C)C)NC(=O)[C@@H](NC(=O)[C@H](CCCNC(=N)N)NC(=O)[C@H](CCCCN)NC(=O)[C@H](CCCNC(=N)N)NC(=O)[C@H](CCCCN)NC(=O)[C@H](CCCNC(=N)N)NC(=O)[C@H](CCCCN)NC(=O)[C@H](CCCNC(=N)N)NC(=O)[C@H](CCCCN)NC(=O)[C@H](CC(C)C)NC(=O)[C@@H](NC(=O)[C@@H](N)CC(C)C)[C@@H](C)CC)[C@@H](C)CC)C(=O)O` [p6], the “Escherichia coli experimental MIC” value with E. coli K-12 is 64 µM. Moreover, the “Staphylococcus aureus experimental MIC” value in the assay on S. aureus ATCC 12600 was greater than 128 µM. In the assay on P. aeruginosa 27853, the “Pseudomonas aeruginosa experimental MIC” value is 128 µM.

For `CC[C@H](C)[C@H](NC(=O)[C@H](Cc1ccccc1)NC(=O)[C@H](CC(C)C)NC(=O)[C@H](CCCNC(=N)N)NC(=O)[C@@H](NC(=O)[C@H](CCCCN)NC(=O)[C@@H](NC(=O)[C@H](CC(C)C)NC(=O)[C@@H](N)C(C)C)[C@@H](C)CC)[C@@H](C)O)C(=O)N[C@@H](CCCCN)C(=O)N[C@@H](CCCNC(=N)N)C(=O)N[C@@H](CCCCN)C(=O)O` [p2], the “Escherichia coli experimental MIC” value in the assay with E. coli K-12 was 64 µM. The “Staphylococcus aureus experimental MIC” value with S. aureus ATCC 12600 is greater than 128 µM. Besides, the “Pseudomonas aeruginosa experimental MIC” value in the assay with P. aeruginosa 27853 is 8 µM.

The values above are taken from publication PMC8515052, “PepVAE: Variational Autoencoder Framework for Antimicrobial Peptide Generation and Activity Prediction” (Frontiers in Microbiology, 2021).
